Laboratory results reported in patent US11117869B2, “Compounds, compositions and methods for treatment of myopia” (Aerie Pharmaceuticals, Inc., priority 2019, dated 2021).

Assay: Topical eye drop composition (Table 3): allergic symptoms, dry eye, hyperemia, irritation

Molecule | allergic symptoms (drop thrice per day) | dry eye syndrome (drop thrice per day) | dry eye syndrome (in vivo)
8-methyl-8-azabicyclo[3.2.1]octan-3-yl 2-(4-fluorophenyl)-3-hydroxypropanoate toluensulfonate | substantially decreases | relieves | 
CN1C2CCC1CC(NC(=O)[C@H](CN)c1ccc(CO)cc1)C2 (stereo partly drawn) [Compound E20S, (S)-3-amino-2-(4-(hydroxymethyl)phenyl)-N-((1R,3-endo,5S)-8-methyl-8-azabicyclo[3.2.]octan-3-yl)propanamide ditosylate] |  |  | relieves
